# Apparent affinities of Ab-14 variants for a coronavirus HR2 peptide

From the AlphaSeq antibody data of Li et al. 2023 (doi:10.1038/s41467-023-39022-2), copy in the FLAb collection.

The target is the same throughout: PDVDLGDISGINAS, from the HR2 region of SARS-CoV-2 spike.

Parent scFv Ab-14: VH joined to VL by a 15-residue (Gly4Ser)3 linker. Changes lie in the heavy chain CDRs alone.
VH: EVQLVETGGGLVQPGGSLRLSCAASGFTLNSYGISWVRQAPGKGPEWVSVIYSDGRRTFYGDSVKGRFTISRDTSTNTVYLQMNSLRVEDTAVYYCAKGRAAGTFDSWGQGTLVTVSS
VL: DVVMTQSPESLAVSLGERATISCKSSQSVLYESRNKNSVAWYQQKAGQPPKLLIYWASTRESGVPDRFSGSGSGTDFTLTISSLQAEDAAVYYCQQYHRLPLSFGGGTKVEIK

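The parent was found by panning a naive human phage display library on the peptide. The variants were designed computationally from a first round of random CDR variants and then made and measured. Group labels follow the data file (En: ensemble of fine-tuned language models; HC: hill climbing; Gen: genetic algorithm; Gibbs: Gibbs sampling; a sequence that several methods proposed may carry one label only). AlphaSeq pools MATa yeast showing the antibodies with MATalpha yeast showing the peptide. Binding brings cells together so that they mate, and sequencing counts the barcode pairs among the diploids. The ratio of observed to expected reads was calibrated, replicate by replicate, on BCL2-family standards whose Kd was known from biolayer interferometry. Mating was done six times.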

Each variant is given by its three heavy chain CDRs, as the data file delimits them; those of the parent are GFTLNSYGIS, VIYSDGRRTFYGDSVK, GRAAGTFDS. This list holds designs with more than six substitutions. Numbers give log10(Kd / nM), so 0 is 1 nM and 3 is 1 µM. Smaller is tighter. A mean of the replicates is given; it leaves out those without a signal. "nd" marks a missing value. The strain was present, yet no cells mated with the target were sequenced in that replicate, which points to weak or no binding. Nonspecific signal, from three strains lacking the peptide, appeared in 1% of pairings of all heavy chain designs, centred on 2.08 (5% of these signals below 0.84); values are not corrected for it. The control count says in how many pairings with the empty strains this scFv gave a signal, with their mean in brackets. Of ten entries with the parent sequence, four were seen in most replicates (averages 0.34 to 2.37), three in one and three in none, so single entries are noisy. The authors averaged sequences with at least three values out of six and counted those with two or fewer as poor binders. Values of this round are not directly comparable with the first-round values of the same sequences.

| CDR-H1 | CDR-H2 | CDR-H3 | group | replicates, log10 nM | mean, log10 nM | empty controls |
|---|---|---|---|---|---|---|
| GFDIKEYGIS | VIYADGMRTAYKPKVK | GNNTWLVDV | En_Gibbs | nd nd nd nd nd nd | nd | 0 of 18 |
| GFDLNEYGIS | VIYADGVRTSYADSVK | GGNAGTFDV | En_Gen | 1.12 0.60 nd nd 0.96 nd | 0.90 | 0 of 18 |
| GEDLEEYGIS | VIYADGMRQYYANSVK | GTSNDFDML | En_Gibbs | nd nd nd nd nd nd | nd | 0 of 18 |
| GFDLEDYGIS | VIYADGRRTFYADSVK | GNVAGTFDM | En_HC | -0.81 -0.37 -1.19 -0.93 -1.21 -0.25 | -0.79 | 0 of 18 |
| GKGLDEYGVS | VIYADGKRHQYAEDVK | GGIAGQFDV | En_Gibbs | nd nd nd nd nd nd | nd | 1 of 18 (1.09) |
| GFDLNEYGIS | VIYADGSRTAYADKVK | GNNAGTFDV | En_Gen | 0.08 -0.36 -0.47 -0.35 -0.21 0.00 | -0.22 | 0 of 18 |
| GFDLNEYGIS | VIYADGQRTAYADSVK | GTNAGTFDI | En_Gen | 0.25 0.23 0.12 0.19 -0.01 0.55 | 0.22 | 0 of 18 |
| GFDLNEYGIS | VIYADGSRTVYADSVK | GENAGTFDI | En_Gen | 1.00 0.47 0.86 0.04 0.40 0.97 | 0.62 | 0 of 18 |
| GFDVMEYGIS | VIYADGMRQAYANKVK | GGITDSGLI | En_Gibbs | nd nd nd nd nd nd | nd | 0 of 18 |
| GFNLDEYGIS | VIYADGKRTAYADSVK | GETAGTFDV | En_Gen | 0.20 nd 0.38 1.45 0.18 -0.07 | 0.43 | 0 of 18 |
| GFWLDEYGIS | VIYADGKRVAYKNSVK | GQFTYNFDV | En_Gibbs | nd nd nd nd nd nd | nd | 0 of 18 |
| GFDLDEYGIS | VIYADGMRTVYADSVK | GENAGTFDM | En_Gen | -0.25 -0.36 -0.78 -0.77 -0.61 -0.24 | -0.50 | 0 of 18 |
| KENINEYGIS | VIYADGRRTAYTQDVK | GQAGGIIDV | En_Gibbs | nd nd nd nd nd nd | nd | 0 of 18 |
| GFDLNEYGIS | VIYADGRRTFYADSVK | GNAAGTFIQ | En_HC | 0.88 1.04 0.70 0.34 1.31 0.66 | 0.82 | 0 of 18 |
| GFDLNEYGIS | VIYADGVRTYYADSVK | GNVAGTFDL | En_Gen | -0.56 -0.66 -0.78 -0.66 -0.93 -0.63 | -0.70 | 0 of 18 |
| GFDLNEYGIS | VIYADGSRTFYADSVK | GQNAGTFDV | En_Gen | -0.10 0.07 -0.73 -0.95 -0.35 -0.16 | -0.37 | 0 of 18 |
| GFDLDEYGIS | VIYADGMRTAYVDSVK | GNQAGTFDI | En_Gen | -0.60 -0.41 -0.51 -0.44 -0.39 -0.10 | -0.41 | 0 of 18 |
| GFNLEDYGIS | VIYADGKRQAYTENVK | CHSDGVMVV | En_Gibbs | nd nd nd nd nd nd | nd | 0 of 18 |
| GFDLNEYGIS | VIYADGRRTFYADSVK | GNQAGTFDT | En_HC | -0.44 -0.89 -0.58 -0.52 -1.00 -0.50 | -0.65 | 1 of 18 (1.42) |
| GFDLNEYGIS | VIYADGKRTAYADDVK | GENAGTFDT | En_Gen | -0.26 -0.36 -0.36 -0.39 -0.17 0.62 | -0.15 | 0 of 18 |
| GFDLDEYGIS | VIYADGSRTAYADSVK | GENAGTFDV | En_Gen | 0.15 -0.58 -0.35 -0.38 0.08 -0.32 | -0.23 | 0 of 18 |
| GFNLDEYGIS | VIYADGTRTSYQPNVK | GVKGGHDVT | En_Gibbs | nd nd nd nd nd nd | nd | 0 of 18 |
| GFDLNEYGIS | VIYADGVRTSYADSVK | GNVAGTFDM | En_Gen | -0.37 -0.33 -0.77 -1.04 -0.63 -0.59 | -0.62 | 0 of 18 |
| GFDLNEYGIS | VIYADGMRTFYADSVK | GEIAGTFDV | En_HC | -0.38 -0.42 -0.38 -0.69 -0.43 -0.46 | -0.46 | 0 of 18 |
| GFDLDEYGIS | VIYADGRRTFYSDSVK | GSNAGTFDM | En_HC | -0.41 -0.26 -0.61 -0.52 -0.40 -0.26 | -0.41 | 0 of 18 |
| GFDLGEYGVS | VIYADGKRTFYADHVK | GVNAGFFDT | En_Gibbs | nd nd nd nd 3.11 nd | 3.11 | 2 of 18 (2.46) |
| GFDLNEYGIS | VIYADGMRTQYIDSVK | GNHAGTFDV | En_HC | 0.09 -0.27 0.42 0.17 -0.08 0.70 | 0.17 | 0 of 18 |
| GFDLDEYGIS | VIYADGMRTAYADSVK | GEAAGTFDV | En_Gen | 0.47 0.55 0.23 -0.21 0.59 0.34 | 0.33 | 0 of 18 |
| GMDLNEYGIS | VIYADGRRTSYINQVK | GKQSVIVSH | En_Gibbs | nd nd nd nd nd nd | nd | 0 of 18 |
| GFDLKEQGIS | VIYADGMRTGYTDKVK | GQNSNGFKM | En_Gibbs | nd nd nd nd nd nd | nd | 0 of 18 |
| GFALDEYGIS | VIYADGMRTFYSNTVK | GEDGVFYDQ | En_Gibbs | nd nd nd nd 3.18 nd | 3.18 | 1 of 18 (2.48) |
| GFDLDEYGIS | VIYADGMRTAYSDDVK | GETAGTFDV | En_Gen | 1.77 0.96 0.72 0.46 2.44 0.21 | 1.10 | 0 of 18 |
| GFDLNEYGIS | VIYADGMRTAYADNVK | GQTAGTFDV | En_Gen | nd 0.51 1.05 0.99 0.90 1.30 | 0.95 | 0 of 18 |
| GSDLNEYGIS | VIYADGVRVSYAENFK | GINTGGIAF | En_Gibbs | nd nd nd nd nd nd | nd | 0 of 18 |
| GFDLNEYGIS | VIYADGMRTAYADDVK | GNNAGTFDI | En_Gen | -0.27 0.02 -0.02 -0.24 0.00 0.09 | -0.07 | 0 of 18 |
| GFNLNEYGIS | VIYADGRRRAYADSVK | NQNMSGMVT | En_Gibbs | nd nd nd nd nd 2.51 | 2.51 | 0 of 18 |
| GKDLDEYGIS | VIYADGKRTHYVENVK | GQFGGTLLD | En_Gibbs | 2.61 nd nd nd nd nd | 2.61 | 0 of 18 |

A selection of 6 entries from above:

| CDR-H1 | CDR-H2 | CDR-H3 | group | replicates, log10 nM | mean, log10 nM | empty controls |
|---|---|---|---|---|---|---|
| GFDLNEYGIS | VIYADGVRTSYADSVK | GGNAGTFDV | En_Gen | 1.12 0.60 nd nd 0.96 nd | 0.90 | 0 of 18 |
| GFDLNEYGIS | VIYADGSRTAYADKVK | GNNAGTFDV | En_Gen | 0.08 -0.36 -0.47 -0.35 -0.21 0.00 | -0.22 | 0 of 18 |
| GFDLNEYGIS | VIYADGRRTFYADSVK | GNAAGTFIQ | En_HC | 0.88 1.04 0.70 0.34 1.31 0.66 | 0.82 | 0 of 18 |
| GFDLNEYGIS | VIYADGVRTSYADSVK | GNVAGTFDM | En_Gen | -0.37 -0.33 -0.77 -1.04 -0.63 -0.59 | -0.62 | 0 of 18 |
| GFDLDEYGIS | VIYADGMRTAYSDDVK | GETAGTFDV | En_Gen | 1.77 0.96 0.72 0.46 2.44 0.21 | 1.10 | 0 of 18 |
| GKGLDEYGVS | VIYADGKRHQYAEDVK | GGIAGQFDV | En_Gibbs | nd nd nd nd nd nd | nd | 1 of 18 (1.09) |